For 1 molecule, koff and kon results are on record in patent publication US20250099548A1 (GI INNOVATION, published 2025).

One may read the koff as a measure of how fast the partners let go of each other. Low readings indicate slow dissociation, high ones fast dissociation. A word on the kon: it is a measure of how fast the partners come together. Higher therefore signals fast association.

This test addresses T1, IL-1Rα (interleukin-1 receptor alpha), R&D systems (UniProt P14778 18-332, limits assumed).
T1 construct: also called IL-1Ra (interleukin-1 receptor alpha)
T1 sequence (looked up): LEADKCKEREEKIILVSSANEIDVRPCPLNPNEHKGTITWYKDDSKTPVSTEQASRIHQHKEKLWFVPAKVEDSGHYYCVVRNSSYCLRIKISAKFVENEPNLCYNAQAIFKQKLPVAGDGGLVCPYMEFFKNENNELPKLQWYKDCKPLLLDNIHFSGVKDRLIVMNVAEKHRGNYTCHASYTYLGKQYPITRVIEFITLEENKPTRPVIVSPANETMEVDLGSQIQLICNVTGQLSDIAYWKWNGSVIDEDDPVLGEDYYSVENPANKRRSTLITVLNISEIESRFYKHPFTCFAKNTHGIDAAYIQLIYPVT
In words: BLI (Octet RED 384), receptor coated on AR2G biosensor at 1 µg/ml, GI210B1 15.6-1,000 nM. The method, then: The binding ability of GI210B1, which was obtained through the method of Preparation Example 1 above, to IL-1Ra ([…]) was measured. At that time, the binding ability to IL-1Ra was confirmed using Octet RED 384 (ForteBio). The AR2G (amine reactive 2nd generation) biosensor was used by immersion in 1× kinetic buffer for 10 minutes. IL-1Ra (R&D systems) was prepared at a concentration of 1 μg/ml and coated on the biosensor, and the binding ability was confirmed at each concentration by serially diluting GI210B1 from 15.6 nM to 1,000 nM.
(In general: Biolayer interferometry detects binding as a change in optical thickness at a sensor tip.)

B1: GI210B1 (GLP-1-IgG4 Fc-IL-1Ra) fusion protein dimer (Fc fusion)
chain: HGEGTFTSDVSSYLEEQAAKEFIAWLVKGGGGGGGSGGGGSGGGGSGGAESKYGPPCPPCPAPEAAGGPSVFLFPPKPKDQLMISRTPEVTCVVVDVSQEDPEVQFNWYVDGVEVHNAKTKPREEQFNSTYRVVSVLTVLHQDWLNGKEYKCKVSNKGLPSSIEKTISKAKGQPREPQVYTLPPSQEEMTKNQVSLTCLVKGFYPSDIAVEWESNGQPENNYKTTPPVLDSDGSFFLYSRLTVDKSRWQEGNVFSCSVLHEALHNHYTQKSLSLSLGGGGGSGGGGSGGGGSGGRPSGRKSSKMQAFRIWDVNQKTFYLRNNQLVAGYLQGPNVNLEEKIDVVPIEPHALFLGIHGGKMCLSCVKSGDETRLQLEAVNITDLSENRKQDKRFAFIRSDSGPTTSFESAACPGWFLCTAMEADQPVSLTNMPDEGVMVTKFYFQEDE
notes: also called third fusion protein
B1 showed a koff of 0.0093 s⁻¹ and an on-rate constant (kon) of 22000 M⁻¹ s⁻¹.
